# The entries are a selection whose mix differs from that of the whole data set. Active and inactive are the calls of the source. Calls come from the whole dose curve; as a rule, active = well fitted inhibition curve with a large enough effect; inconclusive = small, poorly fitted or top-dose-only effect; inactive = flat fitted curve, though single readings scatter.
# Test: qHTS for Inhibitors of Vif-A3F Interactions: qHTS; note: nearly all actives have a fitted effect of over 65% in size
# Details: HeLa A3F-eYFP + Vif (tagged APOBEC3F with the HIV-1 protein that degrades it), YFP fluorescence increase
# From the text: The recent discovery and characterization of host restriction factors, which provide a potent defense to invading retroviruses, has provided new targets for antiviral drug development. APOBEC3G (A3G) and APOBEC3F (A3F) are potent cytidine deaminases that block HIV-1 replication; HIV-1 expresses the Vif protein, which counteracts A3G and A3F by binding to them and inducing their proteasomal degradation. The Vif-A3G and Vif-A3F interactions provide two potential targets for development of small molecules which can interfere with the ability of Vif to degrade A3G or A3F. […] To identify inhibitors that can interfere with Vif mediated degradation of A3G and A3F, we have developed Hela cell lines that stably express A3G or A3F tagged with eYFP at the C-terminal end (A3G-eYFP or A3F-eYFP, respectively) and Vif. In the absence of an inhibitor, Vif induces degradation of A3G-eYFP and A3F-eYFP, and the cells are not fluorescent. In the presence of an inhibitor, it is expected that Vif will be unable to degrade A3G-eYFP and/or A3F-eYFP, resulting in an increase in yellow fluorescence. In this assays Vif A3F was screened against the Molecular Library Small Molecule Repository (MLSMR). […]
# 5 uL of 700 cells/well of A3F-YFP cells are dispensed into black, clear bottom plates. […] The plates are incubated overnight at 37 deg C and then read on the TTP Acumen (Ex 488/ Em 500-530).
# Potency is the fitted concentration of half-maximal effect.
row,Compound,Potency
1,CC[n+]1c(/C=C/N(C)c2ccccc2)oc2ccccc21,active: 10 µM
